The assay deals with Cathepsin B (Homo sapiens, UniProt P07858). The assay can be described thus: Inhibition of human cathepsin B. The procedure, abridged:
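Bovine or human cathepsin B, assayed in 20 mM sodium acetate, pH 5.2, with 0.5 mM dithiothreitol and 2% DMSO. The two enzyme sources were used interchangeably. Ki was taken from Dixon plots, with triplicate assays plotted as 1/v versus inhibitor concentration.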

The term Ki denotes the dissociation constant of the complex between target and ligand, obtained from inhibition or displacement. Low values mean tighter binding, high ones weaker binding.

The molecule `CCC(NC(=O)C(CC(C)C)NC(=O)C(c1ccccc1)c1ccccc1)C(=O)C(=O)NCc1ccccn1` (stereo unspecified) gave a Ki of 2.8 µM.
